{"sequences": {"note": "Sequences of proteins named here, by UniProt entry; tags and fusion partners are left off.", "UniProt P00761, whole entry": "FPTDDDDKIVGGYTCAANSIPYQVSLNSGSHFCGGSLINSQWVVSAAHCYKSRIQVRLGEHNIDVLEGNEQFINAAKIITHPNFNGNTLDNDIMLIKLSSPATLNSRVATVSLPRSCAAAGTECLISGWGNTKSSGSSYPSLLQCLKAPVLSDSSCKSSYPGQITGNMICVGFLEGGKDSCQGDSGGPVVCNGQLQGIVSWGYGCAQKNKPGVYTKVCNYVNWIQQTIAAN"}, "source": "PubChem BioAssay AID488789", "about": "(Broad Institute, 2010)", "target": "Trypsin (Sus scrofa) (UniProt P00761)", "test": "porcine trypsin inhibitors, dose response, selectivity assay for Rce1 protease inhibitor project, biochemical, quenched peptide fluorescence, cherry-pick (AID 488789);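 note: more negative means stronger trypsin inhibition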", "conditions": "quenched peptide cleavage fluorescence; at 10 µM (top of the series)", "note": "The entries are a selection whose mix differs from that of the whole data set. Results with a measured potency or affinity are listed apart. Results filed as inconclusive are left out. Active and inactive are the calls of the source.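 Rule for the calls: active = samples whose fitted half-maximal inhibition concentration is no more than ten times the top valid dose tested; inconclusive = flat response between -70 and -30, or invalid curve fit; inactive = flat within 30 of zero, potency above limit, or signal rising.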", "data": [{"smiles": "CN1CCC(Nc2cccc(F)c2)CC1", "values": [{"measurement": "activity change, negative = inhibition", "result": "inactive: 1.64%"}]}]}
